Data taken from paper PMC4420714 (Peptides, 2015).
Entries after “also recorded” stand apart in the source; their conditions may differ.

Chains of the proteins cited; added tags and fusions are not shown. Residues count along the entry.
UniProt P32241, 31-457, species assumed: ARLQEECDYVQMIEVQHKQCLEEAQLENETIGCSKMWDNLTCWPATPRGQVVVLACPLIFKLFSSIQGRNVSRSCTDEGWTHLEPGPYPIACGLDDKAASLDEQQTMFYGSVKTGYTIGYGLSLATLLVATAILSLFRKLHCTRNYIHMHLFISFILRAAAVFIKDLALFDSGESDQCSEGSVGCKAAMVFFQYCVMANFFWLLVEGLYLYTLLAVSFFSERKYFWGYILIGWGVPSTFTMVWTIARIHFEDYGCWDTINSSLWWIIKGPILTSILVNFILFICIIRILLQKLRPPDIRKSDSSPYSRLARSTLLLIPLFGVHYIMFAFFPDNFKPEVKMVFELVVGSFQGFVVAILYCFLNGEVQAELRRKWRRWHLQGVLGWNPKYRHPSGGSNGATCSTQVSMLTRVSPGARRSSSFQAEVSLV

Key:
VPAC1-R [1] = target: T1, VPAC1-R (Homo sapiens, UniProt P32241); test: [3H]cAMP generation in VPAC1-R/PANC-1 cells; assay type: cell-based; conditions: for [3H]cAMP VPAC1-R/PANC-1 % max (agonist class) / EC50: VPAC1-R/PANC-1 cells; for [3H]cAMP VPAC1-R/PANC-1 % max (agonist class): relative to PACAP38, up to 1 µM; for EC50: read-out: [3H]cAMP VPAC1-R/PANC-1 EC50; for greater affinity than potency for stimulating cAMP generation, VPAC1-R/PANC-1 cells: EC50 cAMP over binding IC50
VPAC2-R [2] = target: T2, VPAC2-R (Homo sapiens, UniProt P41587); test: [3H]cAMP generation in VPAC2-R/PANC-1 cells; assay type: cell-based; conditions: read-out: [3H]cAMP VPAC2-R/PANC-1 EC50; VPAC2-R/PANC-1 cells
T2 sequence (P41587 24-438): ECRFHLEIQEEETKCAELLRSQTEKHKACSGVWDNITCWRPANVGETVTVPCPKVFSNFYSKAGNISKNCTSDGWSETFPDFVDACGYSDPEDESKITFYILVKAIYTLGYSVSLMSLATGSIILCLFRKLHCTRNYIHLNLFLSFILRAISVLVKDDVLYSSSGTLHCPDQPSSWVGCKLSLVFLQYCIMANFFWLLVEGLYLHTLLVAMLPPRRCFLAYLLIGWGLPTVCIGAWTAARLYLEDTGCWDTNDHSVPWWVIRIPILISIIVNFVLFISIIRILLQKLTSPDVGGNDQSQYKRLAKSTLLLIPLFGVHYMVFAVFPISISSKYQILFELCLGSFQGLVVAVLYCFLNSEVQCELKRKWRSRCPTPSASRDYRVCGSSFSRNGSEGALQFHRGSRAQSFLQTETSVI

PAC1-R [3] = target: T3, PAC1-R (Homo sapiens, UniProt P41586); test: [3H]cAMP generation in PAC1-R cells; assay type: cell-based; conditions: for [3H]cAMP PAC1-R % max (agonist class) / EC50: PAC1-R cells; for [3H]cAMP PAC1-R % max (agonist class): relative to maximal stimulation by PACAP38, up to 1 µM; for EC50: read-out: [3H]cAMP PAC1-R EC50; for greater affinity than potency, PAC1-R cells: EC50 cAMP over binding IC50; for higher potency for PAC1-R cells compared to VPAC1-R/PANC-1 cells / higher potency for PAC1-R cells compared to VPAC2-R/PANC-1 cells: cAMP generation EC50 ratio
T3 sequence (P41586 21-468): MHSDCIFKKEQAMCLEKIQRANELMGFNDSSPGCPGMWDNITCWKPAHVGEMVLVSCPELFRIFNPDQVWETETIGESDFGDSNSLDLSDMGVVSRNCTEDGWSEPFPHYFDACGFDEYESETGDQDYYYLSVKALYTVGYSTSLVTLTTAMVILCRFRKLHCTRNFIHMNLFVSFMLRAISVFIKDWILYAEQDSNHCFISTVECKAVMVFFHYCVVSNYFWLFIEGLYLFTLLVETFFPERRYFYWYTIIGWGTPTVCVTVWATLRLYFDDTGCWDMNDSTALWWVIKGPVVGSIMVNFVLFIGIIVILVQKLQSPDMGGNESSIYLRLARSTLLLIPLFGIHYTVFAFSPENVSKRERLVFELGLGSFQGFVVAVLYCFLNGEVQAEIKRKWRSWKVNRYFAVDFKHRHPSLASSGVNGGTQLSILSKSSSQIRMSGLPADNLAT

VPAC1-R [4] = target: T1, VPAC1-R; test: [3H]cAMP generation in T47D cells; assay type: cell-based; conditions: T47D cells; for [3H]cAMP T47D % max (agonist class): relative to PACAP38, up to 1 µM; for EC50: read-out: [3H]cAMP T47D EC50
VPAC2-R [5] = target: T2, VPAC2-R; assay type: binding; conditions: read-out: IC50 VPAC2-R, Sup-T1; Sup-T1 cells, 75 pM 125I-Ro 25-1553, 37°C
PAC1-R [6] = target: T3, PAC1-R; test: Binding of 125I-PACAP27 to PAC1-R stably transfected NIH 3T3 cells; conditions: for lower affinity for PAC1-R cells than VPAC2-R/PANC-1 cells: binding IC50 ratio, VPAC2-R preferring; for decrease in affinity for PAC1-R cells compared to native PACAP38 (or PACAP27): ratio of binding IC50, analog vs native parent peptide
VPAC1-R [7] = target: T1, VPAC1-R; test: Binding of 125I-VIP to VPAC1-R/PANC-1 cells; conditions: ratio of binding IC50, analog vs native parent peptide

Substance	[3H]cAMP VPAC1-R/PANC-1 % max (agonist class) (VPAC1-R [1])	EC50 (VPAC1-R [1]) [nM]	EC50 (VPAC2-R [2]) [nM]	[3H]cAMP PAC1-R % max (agonist class) (PAC1-R [3])	EC50 (PAC1-R [3]) [nM]	[3H]cAMP T47D % max (agonist class) (VPAC1-R [4])	EC50 (VPAC1-R [4]) [nM]	IC50 (VPAC2-R [5]) [nM]	lower affinity for PAC1-R cells than VPAC2-R/PANC-1 cells (PAC1-R [6])	decrease in affinity for PAC1-R cells compared to native PACAP38 (or PACAP27) (PAC1-R [6])	decrease in affinity for VPAC1-R/PANC-1 cells compared to native PACAP38 (or PACAP27, VIP) (VPAC1-R [7])	greater affinity than potency for stimulating cAMP generation, VPAC1-R/PANC-1 cells (VPAC1-R [1])	greater affinity than potency, PAC1-R cells (PAC1-R [3])	higher potency for PAC1-R cells compared to VPAC1-R/PANC-1 cells (PAC1-R [3])	higher potency for PAC1-R cells compared to VPAC2-R/PANC-1 cells (PAC1-R [3])	[3H]cAMP T47D % max, agonist activity at 1 µM, still increasing (VPAC1-R [4])
[Pip^3,Ala^14,17,Aib^16,28,Lys^34,D-Lys^38]PACAP38 [Peptide P39]	no agonist activity; also recorded: No Act	> 1000	> 1000	Ag (1 µM, 14)	> 1000	No Act	> 1000	> 1000	2–4 fold	> 1,000 fold	> 1,000 fold	–	–	–	–	–
[Pip^3,Ala^15,17,Aib^16,28,Lys^34,D-Lys^38]PACAP38 [Peptide P38]	no agonist activity; also recorded: No Act	> 1000	> 1000	no agonist activity; also recorded: No Act	> 1000	No Act	> 1000	> 1000	2–4 fold	> 1,000 fold	> 1,000 fold	–	–	–	–	–
[Pip^3]PACAP38 [Peptide P26]	no agonist activity; also recorded: No Act	> 1000	> 1000	no agonist activity; also recorded: inactive; also recorded: No Act	> 1000	No Act	> 1000	257 ± 4	–	100–300 fold	100–500 fold	1.2–65.2 fold	1.2- to 64 fold	–	–	–
[Pro^3,Lys^34]PACAP38 [Peptide P25]	–	204 ± 9	252 ± 13	–	19.4 ± 1.2	Ag (1 µM, 60)	7.24 ± 0.42	107 ± 4	–	100–300 fold	11–40 fold	1.2–65.2 fold	–	6–15 fold	7-to-15 fold	Ag (1 µM, 60) % max
[Pro^3]PACAP38 [Peptide P18]	Ag (1 µM, 40)	> 1000	> 1000	–	129 ± 6	No Act	> 1000	229 ± 13	–	100–300 fold	100–500 fold	1.2–65.2 fold	1.2- to 64 fold	16–50 fold	22–55 fold	–
[Sar^3]PACAP38 [Peptide P19]	–	182 ± 23	> 1000	–	96 ± 6	Ag (1 µM, 53)	891 ± 49	214 ± 13	–	100–300 fold	100–500 fold	–	1.2- to 64 fold	2-to-5 fold	12–140 fold	Ag (1 µM, 53) % max
[β-Ala^3,Ala^16,17]PACAP38 [Peptide P21]	no agonist activity; also recorded: No Act	> 1000	> 1000	Ag (1 µM, 61)	602 ± 37	No Act	> 1000	323 ± 14	–	> 350 fold	180-to-620 fold	1.2–65.2 fold	1.2- to 64 fold	2-to-5 fold	2–5 fold	–
